## Measured affinities in a library of Ab-14 light chain variants

Data: MIT Lincoln Laboratory AlphaSeq set, Engelhart et al. 2022, doi:10.1038/s41597-022-01779-4, as distributed in FLAb.

All variants were tested on one target, the spike HR2 peptide PDVDLGDISGINAS (SARS-CoV-2).

Parent: Ab-14, a human scFv built as VH, a 15-residue (Gly4Ser)3 linker, VL. Only the CDRs of the light chain vary.
VH: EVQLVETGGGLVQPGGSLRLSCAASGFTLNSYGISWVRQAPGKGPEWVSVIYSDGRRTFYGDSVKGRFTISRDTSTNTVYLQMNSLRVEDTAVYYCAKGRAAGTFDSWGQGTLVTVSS
VL: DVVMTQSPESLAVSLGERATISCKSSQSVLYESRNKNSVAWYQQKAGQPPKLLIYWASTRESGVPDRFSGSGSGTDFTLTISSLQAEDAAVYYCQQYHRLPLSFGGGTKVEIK

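Phage display of a naive human antibody library on the peptide gave the parent. Variants in AAYL50 differ from the parent at up to three CDR positions; double and triple changes were sampled at random. In AlphaSeq, yeast of one mating type display the scFv and yeast of the other type display the target. After mating in shaken culture at 30 °C for 16 h, diploids were selected and their barcode pairs sequenced. A regression on co-assayed BCL2-family reference pairs converts the normalised counts of each replicate to an apparent Kd. The assay was run in three technical replicates.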

The parent's light chain CDRs are KSSQSVLYESRNKNSVA, WASTRES, QQYHRLPLS; each variant's own CDRs replace them letter for letter.
Every variant below is changed at S38 of the VL (sequential numbering).
The Kd shown is the geometric mean over detected replicates; a lower Kd is a better binder.
An entry "nd" has no value in the source: the pair was not observed among the diploids in any replicate. This suggests poor binding but is not conclusive.
Empty control strains, which show no peptide, gave a signal in 18% of pairings with library AAYL50; the median was 15 µM and 95% of these signals were weaker than 970 nM. No background was subtracted.

| CDR-L1 | CDR-L2 | CDR-L3 | Kd | seen in |
|---|---|---|---|---|
| KSSQSVLYESRNKNQVA | WASTRES | QLYHRLPHS | nd | 0/3 |
| KSSQSGLYESRNKNKVW | WASTRES | QQYHRLPLS | 9.1 µM | 3/3 |
| KSSQSCLYESSNKNAVA | WASTRES | QQYHRLPLS | 4.1 nM | 3/3 |
| KSSQSVLYGSRNKNWVA | WASTRES | QQYHRLPWS | nd | 0/3 |
| KSSQSVLYESLNKNLVA | WASTRES | QTYHRLPLS | 3.4 µM | 1/3 |
| KSSISVLYESANKNAVA | WASTRES | QQYHRLPLS | 770 pM | 3/3 |
| KSSQSVLYESRNKNEVA | WASTREE | YQYHRLPLS | 1.8 mM | 2/3 |
| KSSQLVLYESRNKKYVA | WASTRES | QQYHRLPLS | nd | 0/3 |
| KSSQSVLYESKNKNVVT | WASTRES | QQYHRLPLS | 2.5 µM | 1/3 |
| KSSQSVLYESRCKNNVA | WASTRES | MQYHRLPLS | 8.5 µM | 3/3 |
| KSAQSVLYESRNKNVVA | WASTRES | QQYHRLPPS | nd | 0/3 |
| KSSQSVLYESRNKNYVA | WASTRED | QQYHRLPLL | 590 nM | 3/3 |
| KSSQSVLYEMRNKNHVA | WAYTRES | QQYHRLPLS | 7.2 µM | 1/3 |
| KSSQSVAYETRNKNWVA | WASTRES | QQYHRLPLS | nd | 0/3 |
| KSMQSVLQESRNKNEVA | WASTRES | QQYHRLPLS | 160 nM | 3/3 |
| KSSQSVLYESRNENVVA | WASTRES | QQYHRWPLS | 27 µM | 2/3 |
| KSSQSALYESRNKNWVA | WASTRES | QLYHRLPLS | 3.1 µM | 1/3 |
| KSSVSVLYESRNKNQVA | WASTRNS | QQYHRLPLS | 1.2 µM | 3/3 |
| KSSPSVLYESRNKNIVA | CASTRES | QQYHRLPLS | nd | 0/3 |
| KSSLSVLYESRNKNKVA | WASTRES | TQYHRLPLS | nd | 0/3 |
| RSSQSVLYESRNKNMVA | WASTRES | QQYHRLPLM | 6.4 µM | 3/3 |
| KSSQSVLYESRQKNPVA | WASTYES | QQYHRLPLS | 2.9 µM | 1/3 |
| KSSQSVLYESPNKNMVA | WASTRES | QQYHRLPLQ | 61 nM | 3/3 |
| KSSQSVLYESRNKNHVA | WASTRVS | QQRHRLPLS | nd | 0/3 |
| KSSQSVLYESRNKNEVA | WASTRES | QQMHRCPLS | nd | 0/3 |
| KSSQSVLYVSRNKNIVA | WASTRES | QQYHRLMLS | 1.8 µM | 1/3 |
| KSSQSVVYESRNKNAVA | WASTRES | QQHHRLPLS | 410 nM | 2/3 |
| KSSQSVLYESRNKNGVA | SASTRES | QQRHRLPLS | 1.6 nM | 3/3 |
| KSSQSVLYESRLKQCVA | WASTRES | QQYHRLPLS | nd | 0/3 |
| KSSQSVLSESRNKNPVA | WASTRES | QQYHRLPLM | 59 nM | 3/3 |
| KSSQSVLYESRNSNRVA | WASTRES | QQYHPLPLS | 15 nM | 3/3 |
| TSSQSVLYESRNKNVVA | WASFRES | QQYHRLPLS | nd | 0/3 |
| KSSQSVLYESRNKNEVA | WASTMES | QQYHRLPMS | nd | 0/3 |
| KMSQSVLYESRNKNYVA | WASTRES | QQSHRLPLS | nd | 0/3 |
| KSSQSVLYESPNKNFVA | WASTREK | QQYHRLPLS | 880 nM | 2/3 |
| KSSQSVLYESYNKNFVA | WASTTES | QQYHRLPLS | 2.5 µM | 3/3 |
| KSSQSVLYESRNKNAVA | WASWRES | QQYHRLPLS | 20 nM | 3/3 |
| KSSQSVLYESRNMNRVA | WASTRES | QQYHRLPLS | 30 nM | 3/3 |
| KNSQSVLYESRNKNGVA | WASTRVS | QQYHRLPLS | 180 nM | 3/3 |
| KSSQSVLYESRCKNDVA | WMSTRES | QQYHRLPLS | nd | 0/3 |
| KSFQSVLYESRNKNRVA | WASTFES | QQYHRLPLS | nd | 0/3 |
| KSSQSVLYESRNKNMVA | WAQTRES | QQYHRLMLS | nd | 0/3 |
| KQSQSVLYESRNKNVVA | WTSTRES | QQYHRLPLS | nd | 0/3 |
| KSSQCVLYESRNKNYVA | WASTRES | QQYHRLPLS | 13 µM | 2/3 |
| KSSQSVLYESRNKFRVA | WASTRDS | QQYHRLPLS | 35 µM | 1/3 |
| KSSQSVLYESRAKNHVA | WASTRLS | QQYHRLPLS | 540 nM | 3/3 |
| FSSQSVLPESRNKNHVA | WASTRES | QQYHRLPLS | 87 nM | 3/3 |
| KSSQSVLYESRNKNHVA | WASTRES | QWYHRNPLS | nd | 0/3 |
| KSSQSVLCESRQKNMVA | WASTRES | QQYHRLPLS | 1.8 µM | 1/3 |
| KSSVQVLYESRNKNKVA | WASTRES | QQYHRLPLS | 4.9 µM | 3/3 |
| KSSQSVLYESRNKNNVA | WVSTRES | QLYHRLPLS | 1.8 µM | 1/3 |
| WSSQSVLYESRNKNFVA | WASTRES | QQYHRLPLS | nd | 0/3 |
| KSSQSVLYESRNKNWVA | WASTRES | QQYHRIKLS | 60 µM | 1/3 |
| KSSQSILYESRNKNPVA | WASTVES | QQYHRLPLS | 580 nM | 3/3 |
| KSSQSVLYESRNKNGVA | WAVCRES | QQYHRLPLS | 3.8 µM | 3/3 |
| KPSQSVLYESRNKNMVA | WASTRDS | QQYHRLPLS | 1.0 µM | 1/3 |
| KKSQSVLYESRVKNEVA | WASTRES | QQYHRLPLS | 150 nM | 3/3 |
| SSSQQVLYESRNKNIVA | WASTRES | QQYHRLPLS | nd | 0/3 |
| KSSQSVLYESRNKNYVA | WASTRES | QQYHRFPLG | 2.6 µM | 3/3 |
| KSSQSVLYESVNKNIVQ | WASTRES | QQYHRLPLS | 120 µM | 1/3 |
| KSSQSVLYESRNKNCVA | WASTRGS | QQYHRLPLD | nd | 0/3 |
| KSSQSVLYESRNKNLVA | WWSTRES | QQYHRLPLS | nd | 0/3 |
| KSSQSVLYESRNKNNVA | WASTRES | MQYHRLPAS | nd | 0/3 |
| KSSQSVLYESRNKNDVA | WASTRES | KQYHRLPLS | 1.4 µM | 3/3 |
| KTSQSVLYESRNWNPVA | WASTRES | QQYHRLPLS | nd | 0/3 |
| KSSQSVLYECRNKNAVA | WASTRES | QQYHRLTLS | 10 µM | 1/3 |
| KSSQSSRYESRNKNTVA | WASTRES | QQYHRLPLS | 70 µM | 3/3 |
| KSSQSVLYESRNKNCVA | WASTREG | QCYHRLPLS | nd | 0/3 |
| KPSQSVLYESRNKNAVA | WASTRES | QQYHRLPAS | nd | 0/3 |
| KSSQSVLYESRNKNDVA | WASTRES | QQYHRIPLS | 410 nM | 1/3 |
| KSSQSVKEESRNKNLVA | WASTRES | QQYHRLPLS | nd | 0/3 |
| KSDQSVLYESRNKNNVA | WASTRES | QQYCRLPLS | 2.4 nM | 3/3 |
| KSSQSVLYESFNKNIVA | WASTRES | NQYHRLPLS | nd | 0/3 |
| KSSQSVLYESRNKNTVP | WAFTRES | QQYHRLPLS | nd | 0/3 |

Excerpt, the final 8 entries:

CDR-L1,CDR-L2,CDR-L3,Kd,seen in
KSSQSSRYESRNKNTVA,WASTRES,QQYHRLPLS,70 µM,3/3
KSSQSVLYESRNKNCVA,WASTREG,QCYHRLPLS,nd,0/3
KPSQSVLYESRNKNAVA,WASTRES,QQYHRLPAS,nd,0/3
KSSQSVLYESRNKNDVA,WASTRES,QQYHRIPLS,410 nM,1/3
KSSQSVKEESRNKNLVA,WASTRES,QQYHRLPLS,nd,0/3
KSDQSVLYESRNKNNVA,WASTRES,QQYCRLPLS,2.4 nM,3/3
KSSQSVLYESFNKNIVA,WASTRES,NQYHRLPLS,nd,0/3
KSSQSVLYESRNKNTVP,WAFTRES,QQYHRLPLS,nd,0/3